Inhibition data for 9 compounds are collected here from PubChem BioAssay AID743093 (The Scripps Research Institute Molecular Screening Center, 2013).

As usually defined, the inhibition is the change of the read-out against control, counted positive when it falls.

This is a selection; strong and weak results do not stand in their true shares. Some results for these compounds are left out of this collection, so the calls shown say nothing about other tests. The source made the active and inactive calls.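 Rule for the calls: active = inhibition above the mean plus 3 SD of compounds within the control limits, set per campaign (cut at about 38% in these data); inactive = the rest.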

The nature of this assay: late stage P. falciparum gametocyte viability inhibitors, primary screen, ATP luminescence, HTS (AID 743093).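 Note: 0% = DMSO wells and 100% = medium only without gametocytes.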 The note with it: P. falciparum stage V gametocytes, 24 h, at 10.9 µM, stronger effect = higher value.
For the compound `CN(C)C1CCCC1OC(=O)C(O)(c1ccccc1)c1ccccc1` (centres undefined), the inhibition is inactive: 0.67%.

Take `Cc1ccccc1C(=O)NCC1(N2CCCCC2)CCCCC1`: the inhibition is inactive: -11.6%.

As for `CCN1CCCC(OC(=O)C2(O)c3ccccc3C=Cc3ccccc32)C1` (centres undefined), the inhibition is inactive: 2.5%.

With `O=C(NCC1(N2CCCCC2)CCCCC1)c1cc([N+](=O)[O-])ccc1Cl`, the inhibition was inactive: -24.3%.

Regarding `CCN(CC)CC(C)C(C)OC(=O)C(O)(c1ccccc1)c1ccccc1` (centres undefined), the inhibition is inactive: 8.95%.

On to `CC(C)N1C(=O)CC2(CCN(CCOC(=O)C(O)(c3ccccc3)c3ccccc3)CC2)C1=O`, for which the inhibition was inactive: 5.86%.

In the case of `COc1ccc(Br)c(C(=O)NCC2(N3CCCCC3)CCCCC2)c1`, the inhibition was inactive: 4.24%.

For `CN(C)c1cccc(C(=O)NCC2(N(C)C)CCCCC2)c1`, the inhibition is inactive: -9.67%.

On to `COc1cccc(C(=O)NCC2(N3CCCCC3)CCCCC2)c1`, for which the inhibition is inactive: -1.72%.
